Assay results reported in ChEMBL document CHEMBL6096677, “Discovery of HZS60 as a Novel Brain Penetrant NMDAR/TRPM4 Interaction Interface Inhibitor with Improved Activity and Pharmacokinetic Properties for the Treatment of Cerebral Ischemia” (J Med Chem, 2025).
Active and inactive are the calls of the source. No cut-off for these calls is given here.

Target: T1, Transient receptor potential cation channel subfamily M member 4 (Mus musculus) (UniProt Q7TN37)
T1 sequence (whole entry): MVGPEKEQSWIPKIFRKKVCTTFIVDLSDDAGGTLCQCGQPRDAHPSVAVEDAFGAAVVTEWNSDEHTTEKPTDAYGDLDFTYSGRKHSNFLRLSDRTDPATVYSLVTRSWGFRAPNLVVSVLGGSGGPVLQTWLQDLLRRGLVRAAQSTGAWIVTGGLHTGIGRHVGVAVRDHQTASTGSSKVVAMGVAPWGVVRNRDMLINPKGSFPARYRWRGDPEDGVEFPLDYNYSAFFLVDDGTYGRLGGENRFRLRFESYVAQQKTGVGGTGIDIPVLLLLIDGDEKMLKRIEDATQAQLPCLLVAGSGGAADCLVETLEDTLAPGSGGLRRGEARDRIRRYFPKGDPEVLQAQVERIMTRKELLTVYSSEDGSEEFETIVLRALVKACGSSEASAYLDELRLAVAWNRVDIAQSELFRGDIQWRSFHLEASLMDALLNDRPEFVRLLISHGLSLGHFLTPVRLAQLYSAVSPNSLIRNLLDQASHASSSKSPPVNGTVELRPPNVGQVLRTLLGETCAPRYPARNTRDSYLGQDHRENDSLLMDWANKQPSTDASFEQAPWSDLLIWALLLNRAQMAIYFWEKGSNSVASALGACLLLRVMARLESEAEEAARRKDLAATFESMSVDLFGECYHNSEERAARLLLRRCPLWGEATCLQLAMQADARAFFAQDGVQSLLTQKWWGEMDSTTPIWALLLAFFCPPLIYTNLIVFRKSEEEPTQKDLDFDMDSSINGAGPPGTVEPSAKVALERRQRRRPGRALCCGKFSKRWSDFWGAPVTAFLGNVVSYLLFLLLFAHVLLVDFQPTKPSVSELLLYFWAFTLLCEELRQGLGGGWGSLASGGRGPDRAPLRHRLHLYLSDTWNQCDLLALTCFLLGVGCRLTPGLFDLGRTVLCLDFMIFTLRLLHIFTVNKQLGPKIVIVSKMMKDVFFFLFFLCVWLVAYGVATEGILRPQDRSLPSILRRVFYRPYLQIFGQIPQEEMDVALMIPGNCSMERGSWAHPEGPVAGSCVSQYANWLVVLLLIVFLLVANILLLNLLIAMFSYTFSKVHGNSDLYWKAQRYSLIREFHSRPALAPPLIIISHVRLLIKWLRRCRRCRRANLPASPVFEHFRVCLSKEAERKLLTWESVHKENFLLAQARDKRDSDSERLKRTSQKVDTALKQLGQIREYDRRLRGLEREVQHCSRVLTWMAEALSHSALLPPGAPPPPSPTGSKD
Details: C57BL/6, dose 25.0 mg/kg, route ig, time 21-24 hrs

- inhibition: inactive
Compound: CCN(CCN)C(C)c1c(F)ccc(C#N)c1F (stereo unspecified)
